Entries after “also recorded” stand apart in the source; their conditions may differ. Marks after values point to notes of the source that are not given here.
System: Lewis rats
Assay: Posterolateral intertransverse process spinal fusion at L4-L5 in rats
Assay type: in vivo, rat
Protocol: Thirty-eight 8-week-old male Lewis rats were purchased from Charles River Laboratories (Wilmington, Mass.) and were maintained and housed at the UCLA vivarium in accordance with regulations set forth by the UCLA Office of Protection of Research Subjects. The study was performed under a protocol approved by the UCLA Animal Research Committee (ARC). All animals were euthanized using a standard CO2 chamber 8 weeks after the spinal fusion procedure, and their spines were excised and stored in 40% ethyl alcohol.
Animals were pre-medicated with sustained release buprenorphine thirty minutes prior to surgery and anesthetized with 2% isoflurane administered in oxygen (1 L/min). The surgical site was shaved and disinfected with Betadine and 70% ethanol. Posterolateral intertransverse process spinal fusion at L4-L5 was performed as in prior studies (21, 22). The L6 vertebral body was identified using the iliac crest as a landmark. A 4-cm longitudinal midline incision was made through the skin and subcutaneous tissue over L4-L5 down to the lumbodorsal fascia. A 2-cm longitudinal paramedial incision was then made in the paraspinal muscles bilaterally to expose the transverse processes of L4-L5, which were decorticated with a high-speed burr. The surgical site was then irrigated with sterile saline, and 5 mm×5 mm×13 mm pieces of collagen sponge (Helistat, Integra Life Sciences) containing dimethyl sulfoxide (DMSO) control, rhBMP-2, or Oxy133 were placed bilaterally, with each implant spanning the transverse processes. The implants were then covered with the overlying paraspinal muscles and the lumbodorsal fascia and skin were closed with 4-0 Prolene sutures (Ethicon, Inc., Somerville, N.J.). Animals were allowed to ambulate, eat, and drink ad libitum immediately after surgery.
Posteroanterior radiographs of the lumbar spine were taken on each animal at 4, 6, and 8 weeks after surgery using a Faxitron LX60 cabinet radiography system and evaluated blindly by two independent observers employing the following standardized scale: 0, no fusion; 1, unilateral fusion; and 2, complete bilateral fusion. The scores from the observers were added together and only a score of 4 was considered as complete fusion.
Eight weeks after surgery, animals were euthanized and the spines were surgically removed and evaluated by two blinded independent observers for motion between levels. Nonunion was recorded if motion was observed between the facets or transverse processes on either side. Complete fusion was recorded if no motion was observed bilaterally. Spines were scored as either fused or not fused. Unanimous agreement was required to consider complete fusion.
Each removed spine was analyzed by high resolution micro-computed tomography (micro-CT), using a SkyScan 1172 scanner (SkyScan, Belgium) with a voxel isotropic resolution of 20 μm and an X-ray energy of 55 kVp and […] to further assess the fusion rate and observe the fusion mass as we have previously reported (15). Three hundred and sixty projections were acquired over an angular range of 180° with steps of 0.5 with an exposure time of 220 msec/slice. Five frames were averaged at each rotation step to get better signal to noise ratio. A 0.5 mm aluminum filter was used to narrow down the X-ray beam frequency in order to minimize beam hardening artifact. Virtual image slices were reconstructed using the cone-beam reconstruction software version 2.6 based on the Feldkamp algorithm (SkyScan). These settings produced serial cross-sectional 1024×1024 pixel images. Sample re-orientation and 2D visualization were performed using DataViewer (SkyScan). 3D visualization was performed using Dolphin Imaging version 11 (Dolphin Imaging & Management Solutions, Chatsworth, Calif.). Fusion was defined as the bilateral presence of bridging bone between the L4 and L5 transverse processes. The reconstructed images were judged to be fused or not fused by two experienced independent observers. […]

[1] = 5 μg rhBMP-2, at sacrifice (8 weeks)

## BMP2: Recombinant human bone morphogenetic protein-2
5 μg rhBMP-2
  bilateral bridging trabecular bone, micro-CT: all animals
5 μg rhBMP-2, after sacrifice
  bilateral fusion by manual assessment: all animals
[1]
  Fusion Rates (%) Manual Palpation: 100%
  Fusion Rates (%) Micro-CT: 100%
  Fusion Rates (%) X-ray: 100%
5 μg rhBMP-2, eight weeks
  fusion on radiographs: all animals
5 μg rhBMP-2, four weeks after operation
  bilateral fusion on radiographs: 8/8
BMP2 5 μg
  size of the fusion mass compared to 20 mg or 2 mg of Oxy133 (histology): increased
BMP2 5 μg vs Oxy133 treated groups, 8 weeks
  formation of adipocytes within the fusion mass (histology, visual inspection): robust formation of adipocytes; also recorded: significant adipocyte formation
BMP2 5 μg, micro-CT, 8 weeks
  Fusion Mass Bone Volume: 20.126 mm^3
  Fusion Mass Bone Volume to Tissue Volume: 19.633* %
  Fusion Mass Total Tissue Volume: 106.909* mm^3
  Fusion Mass Trabecular Separation: 446.126* μm
  trabecular thickness: 131.131
BMP2 5 μg, Oxy133 2 or 20 mg, 8 weeks
  bone formation in fusion mass (histological assessment): formation of trabecular bone within the fusion mass and continuous cortical bone
